Measured values published in patent EP1534672B1, “RETINOL DERIVATIVES, THEIR USE IN THE TREATMENT OF CANCER AND FOR POTENTIATING THE EFFICACY OF OTHER CYTOTOXIC AGENTS” (priority 2002, dated 2004).

System: Human Breast Adenocarcinoma Cell Line MDA-MB-231
Experiment: Drug cytotoxicity testing (viable cell count, trypan blue exclusion, cell growth inhibition)
Format: cell-based
Protocol: MDA-MB-231 cells were propagated in MEM culture medium with 2 mM L-glutamine, 10% heat-inactivated fetal bovine serum (FBS) and antibiotics. DU 145 cells were cultured in MEM culture medium containing 2 mM L-glutamine, 1 mM sodium pyruvate, 10% FBS and antibiotics. SKOV-3 cells were cultured in McCoy's 5A culture medium, supplemented with 1,5 mM L-glutamine, 10% FBS and antibiotics. A549 cells were cultured in Ham's F-12 culture medium with 1 mM L-glutamine, 10% FBS and antibiotics. All media and supplements were purchased from Sigma-Aldrich (St.Louis, MO, USA). Cell propagation of all lines was carried out in Falcon™ 25 cm^2 cultivation flasks (Becton Dickinson Labware).
Drug cytotoxicity testing was carried out with using Falcon™ 96-well cultivation plates for adherent cells (Becton Dickinson Labware). These plates were seeded by cells either at 12 × 10^3 MDA-MB-231 cells/well, or at 12 × 10^3 DU 145 cells/well, or at 14 × 10^3 SKOV-3 cells/well, or at 10 × 10^3 A549 cells/well in a volume of 200 µL/well.
The cell cultures in cultivation plates were allowed to adhere for 24 hour of incubation. On day 1 after cell seeding, 2 µL solutions of the drugs to be tested in medium with 5% FBS was added to the cultures. In the control cultures, 2 µL of medium with 5% FBS was added as solvent control. The cells were incubated for 2 consecutive days. At the end of the incubation period adherent cells were detached by trypsinization and the number of viable cells was counted using trypan blue exclusion test and a hemocytometer. All data were derived from an average of three determinations each in six replicates. The results were expressed as mean cell number ± SE and the differences between control and test series evaluated by means of Student's t-test. The drug cytotoxicity was evaluated based on the extent of cell growth inhibition. The cell growth inhibition of the tested drugs was calculated as follows: Cell growth inhibition,% = (Control-TestSeries)/(Control) × 100 [formula]
In the case of comparative evaluation of cytotoxicity of the inventive compounds themselves and the formulation related to consecutive dilutions of their initial solutions before adding to the cultures, 2 µL solutions of the drugs to be tested in medium with 5% FBS, in normal saline and in saline with 2,3 mM CaCl2 were added to the cultures. In control cultures, 2 µL of medium with 5% FBS, normal saline and saline with 2,3 mM CaCl2 were added as solvent controls (negative controls). […] Therefore an average of negative controls was calculated. […] Therefore an average of positive controls was calculated (for each antibiotic).

[1] = MDA-MB-231, compound alone 10^-7 mol/L, in A (saline with […] CaCl2)
[2] = MDA-MB-231, 48 h, compound alone, final concentration 10^-7 mol/L, working solutions in MEM with 5% FBS, two days

SMILES	inhibition at 0.1 µM [1]	inhibition at 0.1 µM [2]
CC1=C(/C=C/C(C)=C/C=C/C(C)=C\C(=O)N[C@@H](CS(=O)(=O)O)C(N)=O)C(C)(C)CCC1 [compound II-1f, N-(13-cis-retinoyl)-L-cysteic acid amide]	54.2%	
CNC(=O)[C@H](CS(=O)(=O)O)NC(=O)/C=C(C)/C=C/C=C(C)/C=C/C1=C(C)CCCC1(C)C [compound I-1g, N-(all-trans-retinoyl)-L-cysteic acid methylamide]	43.2%	43.2%
CC1=C(/C=C/C(C)=C/C=C/C(C)=C/C(=O)N[C@@H](CS(=O)(=O)O)C(=O)OC(C)C)C(C)(C)CCC1 [compound I-1c, N-(all-trans-retinoyl)-Lwcysteic acid isopropyl ester]		49.5%
CCCCOC(=O)[C@H](CS(=O)(=O)O)NC(=O)\C=C(C)/C=C/C=C(C)/C=C/C1=C(C)CCCC1(C)C [compound II-1e, N-(13-cis-retinoyl)-L-cysteic acid butyl ester]		54.2%
